The values below are quoted from earlier work in patent publication US4230456A, “Element and assay for albumin” (Eastman Kodak Company, priority 1978, dated 1980).

The conditions of this series: plasma protein.

For the substance “Albumin: smallest and most abundant of plasma proteins”, the half-life result was “four”.
